The values that follow come from patent publication US20260042831A1 (XENTRIA, published 2026).

Amino acid sequences for entries named in this document (tags omitted). Residues count along the entry.
UniProt P01375, whole entry: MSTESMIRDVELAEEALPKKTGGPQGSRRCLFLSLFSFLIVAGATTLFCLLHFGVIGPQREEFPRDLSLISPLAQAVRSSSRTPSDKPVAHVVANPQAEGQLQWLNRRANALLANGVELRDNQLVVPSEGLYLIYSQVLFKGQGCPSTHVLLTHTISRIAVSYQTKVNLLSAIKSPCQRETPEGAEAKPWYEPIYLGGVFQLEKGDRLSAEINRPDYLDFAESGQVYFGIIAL
UniProt P01375, 77-233 limits assumed: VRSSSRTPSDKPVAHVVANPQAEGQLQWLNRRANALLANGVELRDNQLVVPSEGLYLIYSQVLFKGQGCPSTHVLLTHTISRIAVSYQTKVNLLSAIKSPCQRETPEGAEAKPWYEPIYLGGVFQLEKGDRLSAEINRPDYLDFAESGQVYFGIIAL

The target in assay [1] is T1, transmembrane TNFα (mTNFα) expressed on T3-33 cells (UniProt P01375 1-233).
T1 construct: whole, on cells; The CDC assay says only 'cells expressing mTNFα'; also called T3-33 (TNFα-expressing) cells; cells expressing mTNFα
In words: Cell-based ELISA on T3-33 cells expressing mTNFα. Bound antibody detected with HRP mouse anti-human IgG1 and TMB, OD 450 nm. The value is parameter C (midpoint) of the printed 4-P fit, with A 0.0769, B 1.26, D 0.416. The unit comes from the x axis 'Remicade ng/ml'. A general note: An ELISA detects its analyte on a solid surface through an enzyme-linked reagent.

Assay [2] deals with T2, human TNFα (human, UniProt P01375 77-233). In words: direct ELISA; direct ELISA.
Assay [3] addresses recombinant TNFα (soluble; species not stated) (UniProt P01375 77-233). Nature of the assay: cell-based or functional assay.
Assay [4] deals with T2, human TNFα. Nature of the assay: indirect sandwich ELISA; indirect sandwich ELISA.

B1: Infliximab (antibody, V domains shown)
VH: EVKLEESGGGLVQPGGSMKLSCVASGFIFSNHWMNWVRQSPEKGLEWVAEIRSKSINSATHYAESVKGRFTISRDDSKSAVYLQMTDLRTEDTGVYYCSRNYYGSTYDYWGQGTTLTVSS
VL: DILLTQSPAILSVSPGERVSFSCRASQFVGSSIHWYQQRTNGSPRLLIKYASESMSGIPSRFSGSGSGTDFTLSINTVESEDIADYYCQQSHSWPFTFGSGTNLEVKR
On to B1, for which, in assay [1], the half-maximal effective concentration (EC50) – broadly, the concentration at which the effect is half-maximal – is 0.0443 µg/mL.

B2: XTMAB-16 (antibody, human IgG1, kappa)
heavy: not shown
light: DILLTQSPAILSVSPGERVSFSCRASQFVGSSIHWYQQRTNGSPRLLIKYASESMSGIPSRFSGSGSGTDFTLSINTVESEDIADYYCQQSHSWPFTFGSGTNLEVKRTVAAPSVFIFPPSDEQLKSGTASVVCLLNNFYPREAKVQWKVDNALQSGNSQESVTEQDSKDSTYSLSSTLTLSKADYEKHKVYACEVTHQGLSSPVTKSFNRGEC
notes: The general description says the antibody is sialylated with N-acetylneuraminic acid (Asn 297 in embodiments) and glycosylated at Asn 300; All batches (A-H); also called XTMB-16
On to B2, for which the EC50 was 0.578 µg/mL with human TNFα [2], 0.0607 µg/mL in the assay with human TNFα [4] and 0.0485 µg/mL in assay [1]. The “EC50 (parameter C, midpoint of the printed 4-P fit with A 41.3, B 1.84, D 279). Inhibition of TNFα-induced cytotoxicity in A375 cells, luminescence RLU/100. Plot #2 (Tested Sample), solid line.” value in assay [3] is 0.0145 µg/mL.
